Experimental findings from PubChem BioAssay AID924 (National Center for Advancing Translational Sciences (NCATS), 2007) are described below.

This is a selection; strong and weak results do not stand in their true shares. Inconclusive results are not listed. Active and inactive are the calls of the source. Calls follow the shape of the dose curve; as a rule, active = well fitted cell-killing curve with a large enough effect; inconclusive = small, poorly fitted or top-dose-only effect; inactive = no such curve, though single readings can be large or run the other way.

This test in a line: qHTS Screen for Compounds that Selectively Target Cancer Cells with p53 Mutations: Cytotoxicity of p53ts Cells at the Permissive Temperature.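 Also: 0% = DMSO and -100% = full killing by reference compound; nearly all actives have a fitted effect of over 55% in size.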 As to conditions: H1299-p53A138V at 32C, ATP luminescence viability, 24 h; at 46.1 µM (top of the series) unless noted. (qHTS replaces the single test concentration by a dilution series.)
As for `CCCOc1cccc(C(=O)NCC2(N3CCOCC3)CCCCC2)c1`, the activity change, negative = cytotoxicity is inactive: -0.442%.
As for `N#CC1(Nc2ccccc2)CCN(CCc2ccccc2)CC1`, the figure is inactive: -7.1%; as for `CCOc1ccc(C(=O)NCC2(N3CCOCC3)CCCCC2)cc1`, inactive: 0.318%; as for `CCCCOc1ccccc1C(=O)NCC1(N2CCOCC2)CCCCC1`, inactive: -3.02%.
With `O=C(NCC1(N2CCOCC2)CCCCC1)c1ccccc1Br`, the activity change, negative = cytotoxicity is inactive: 5.01%.
As for `O=C(OC1CN2CCC1CC2)C1c2ccccc2Oc2ccccc21` (stereo unspecified), the figure is inactive: -9.29%.
Consider `O=C(NCC1(N2CCOCC2)CCCCC1)c1ccc(Cl)cc1`, for which the activity change, negative = cytotoxicity is inactive: -2.75%.
Consider `COc1ccccc1C(=O)NCC1(N2CCOCC2)CCCCC1`, for which the activity change, negative = cytotoxicity was inactive: 0.0067%.
Turning to `COc1ccc(NC2CCN(CCc3ccccc3)CC2)c(OC)c1`, the activity change, negative = cytotoxicity was inactive: -2.91%.
For the compound `Cc1ccccc1C(=O)NCC1(N(C)C)CCCCC1`, the activity change, negative = cytotoxicity is inactive: 2.12%.
As for `CC(C)(C)c1ccc(C(=O)NCC2(N3CCOCC3)CCCCC2)cc1`, the figure is inactive: -5.97%; as for `CN(C)C1(CNC(=O)c2ccc(C(C)(C)C)cc2)CCCCC1`, inactive: -6.12%.
For the compound `Fc1ccccc1NC1CCN(Cc2ccccc2)CC1`, the activity change, negative = cytotoxicity is inactive: -15.2%.
On to `COc1cc(C(=O)NCC2(N3CCOCC3)CCCCC2)cc(OC)c1OC`, for which the activity change, negative = cytotoxicity was inactive: -5.59%.
In the case of `CCC(CO)(C(=O)OC1CN2CCC1CC2)c1ccccc1` (stereo unspecified), the activity change, negative = cytotoxicity was inactive: -0.426%.
On to `CCOc1ncccc1C(=O)NCC1(N2CCOCC2)CCCCC1`, for which the activity change, negative = cytotoxicity is inactive: -1.42%.
As for `O=C(O)C1(Nc2ccccc2)CCN(Cc2ccccc2)CC1`, the figure is inactive: 5.38% [at 9.22 µM]; as for `N/C(=N\O)c1c(N)no[n+]1[O-]`, inactive: -11.7%; as for `O=C(NCC1(N2CCOCC2)CCCCC1)c1ccccc1`, inactive: 0.152%.
As for `O=C(NCC1(N2CCOCC2)CCCCC1)c1ccccc1[N+](=O)[O-]`, the figure is inactive: 6.41%.
Turning to `O=C(NCC1(N2CCOCC2)CCCCC1)c1ccc([N+](=O)[O-])cc1`, the activity change, negative = cytotoxicity was inactive: -2.64%.
